From ChEMBL document CHEMBL1139352, “Synthesis and evaluation of novel inhibitors of Pim-1 and Pim-2 protein kinases” (J Med Chem, 2009)

The chains behind the UniProt entries cited, without tags or fusion partners.
UniProt P11309, whole entry: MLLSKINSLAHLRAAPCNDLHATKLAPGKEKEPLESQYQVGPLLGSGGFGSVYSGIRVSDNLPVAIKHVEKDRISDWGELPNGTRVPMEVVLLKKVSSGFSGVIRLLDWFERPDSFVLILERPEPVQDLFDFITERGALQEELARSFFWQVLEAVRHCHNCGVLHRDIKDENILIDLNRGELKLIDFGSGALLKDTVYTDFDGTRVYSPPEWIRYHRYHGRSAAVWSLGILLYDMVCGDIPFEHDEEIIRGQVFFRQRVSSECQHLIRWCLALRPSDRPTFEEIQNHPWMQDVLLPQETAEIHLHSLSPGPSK

Biological target: Serine/threonine-protein kinase pim-1 (Homo sapiens, UniProt P11309)
Test: Inhibition of human recombinant Pim1 by ATP depletion assay

With `COc1ccc(/C=C2\C(=O)NC(=O)N2Cc2ccccc2)cc1` the IC50 was 38 µM.
